{"source": "patent US11771779B2", "about": "“Non-metallic magnetic resonance contrast agent” (HADASIT MEDICAL RESEARCH SERVICES & DEVELOPMENT LIMITED, priority 2018, dated 2023)", "settings": "whole human blood/saline, hyperpolarized signal monitored 4 min, 32-36° C.", "procedure": "The small amounts of hyperpolarized solution were added to the blood sample at 0, 3, 6, 7.25, and 9.17 min from arrival of the solution to the collection tube.", "note": "“Also recorded” adds a separate entry of the source. Read-outs that look alike come from different tables or passages of the source."}
{"compound": "O=[15N+]([O-])[O-].[Na+]", "note": "[[^15N]nitrate, sodium [^15N]nitrate]", "values": [{"measurement": "stability in blood (conversion to [^15N]nitrite)", "value": "only the [^15N]nitrate signal was detected; also recorded: not significantly metabolized"}, {"measurement": "stability in blood (conversion to [^15N]nitrite)", "setting": "listed as nitrate", "value": "not affected by the contact with the blood components; also recorded: could not detect any metabolism of nitrate to nitrite"}]}
